Our source for the log(activity) values is ChEMBL document CHEMBL5625167, “In vitro bioevaluation and docking study of dihydrosphingosine and ethambutol analogues against sensitive and multi-drug resistant Mycobacterium tuberculosis” (Eur J Med Chem, 2023).

Each structure is given as a SMILES string.

Assay [1] concerns Mycolicibacterium smegmatis. As to the kind of experiment: Antimycobacterial activity against Mycobacterium smegmatis ATCC607 assessed as log reduction in bacterial viability at 16 uM incubated for 24 hrs by time kill assay.
Assay [2] relates to Mycolicibacterium smegmatis. Description: Antimycobacterial activity against Mycobacterium smegmatis ATCC607 assessed as 10 log reduction in bacterial viability at 16 uM incubated for 48 to 72 hrs by time kill assay in presence of rifampicin. Particulars: time 48-72 hrs.

Turning to `CCCCCCCCCCCCCCCCCCCC(CNCC)NC(=O)OC(C)(C)C` (configuration not stated), the log(activity) was found to be 2.7 in assay [1] and 2.6 in assay [2].
